Data reported in patent US20260364079A1 (Principia Biopharma Inc., priority 2022, published 2026).

Assay: phase 1/2 study in relapsed/refractory ITP (NCT03395210), safety
Details: single patient

Structure (SMILES): CC(C)(C=C(C#N)C(=O)N1CCC[C@@H](n2nc(-c3ccc(Oc4ccccc4)cc3F)c3c(N)ncnc32)C1)N1CCN(C2COC2)CC1 (mixture of isomers) [rilzabrutinib, (R)-2-[3-[4-amino-3-(2-fluoro-4-phenoxy-phenyl)pyrazolo[3,4-d]pyrimidin-1-yl]piperidine-1-carbonyl]-4-methyl-4-[4-(oxetan-3-yl)piperazin-1-yl]pent-2-enenitrile]
- Platelet Count Prior to Rescue Medication (300 mg bid, baseline 3 × 10^9/L, C2D1): 1.4e+10 L⁻¹
- Platelet Count Prior to Rescue Medication (400 mg bid, baseline 21 × 10^9/L, C4D1): 1.6e+10 L⁻¹
